The source of these data is PubChem BioAssay AID540277 (National Center for Advancing Translational Sciences (NCATS), 2011).

Sequences of proteins named here, by UniProt entry; tags and fusion partners are left off.
UniProt Q8NER1, whole entry: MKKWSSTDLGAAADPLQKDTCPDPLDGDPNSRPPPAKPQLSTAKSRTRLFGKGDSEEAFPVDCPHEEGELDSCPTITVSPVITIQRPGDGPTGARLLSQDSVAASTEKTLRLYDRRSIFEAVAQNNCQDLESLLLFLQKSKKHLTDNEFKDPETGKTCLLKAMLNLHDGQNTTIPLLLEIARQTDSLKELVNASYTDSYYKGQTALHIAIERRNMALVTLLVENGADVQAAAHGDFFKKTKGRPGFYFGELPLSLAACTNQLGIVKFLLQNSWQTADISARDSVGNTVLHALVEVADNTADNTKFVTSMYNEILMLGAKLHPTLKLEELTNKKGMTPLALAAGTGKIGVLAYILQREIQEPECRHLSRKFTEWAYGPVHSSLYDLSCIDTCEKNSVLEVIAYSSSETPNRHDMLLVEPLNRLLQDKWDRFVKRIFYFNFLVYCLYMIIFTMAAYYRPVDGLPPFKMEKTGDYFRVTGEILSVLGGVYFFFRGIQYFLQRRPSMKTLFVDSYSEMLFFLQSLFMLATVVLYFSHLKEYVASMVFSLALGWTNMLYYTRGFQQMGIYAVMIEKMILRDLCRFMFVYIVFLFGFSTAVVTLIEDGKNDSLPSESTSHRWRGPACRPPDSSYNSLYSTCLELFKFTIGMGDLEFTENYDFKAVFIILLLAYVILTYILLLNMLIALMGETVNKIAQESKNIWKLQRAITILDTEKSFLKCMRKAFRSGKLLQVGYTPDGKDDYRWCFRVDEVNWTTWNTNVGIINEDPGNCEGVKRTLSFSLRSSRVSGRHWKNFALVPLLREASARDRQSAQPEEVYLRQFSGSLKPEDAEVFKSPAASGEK

Some of the results follow. Some results for these compounds are left out of this collection, so the calls shown say nothing about other tests. Inconclusive results are not listed. Calls of active or inactive are those of the source. Cut-off read from the data, not from the text of the source: active = potentiation above about 80%; inconclusive = between about 30% and that limit; inactive = weaker than that.

The experiment addresses Transient receptor potential cation channel subfamily V member 1 (Homo sapiens) (UniProt Q8NER1). As to the kind of experiment: HTS Assay for Compounds that Act as Potentiators of the Vanilloid Receptor 1. Note: 0% is about no effect. The settings on record: TRPV1-expressing cells, Fluo-8 calcium influx, capsaicin EC20 potentiation; at 8.33 µM; active compounds read high. From the text: The transient receptor potential ion channel, family V, number 1, (TRPV1) is one of the most important molecular transducers of painful stimuli and a potential target for analgesic drug development. Although recent clinical trials with orthosteric antagonists have not produced a successful drug because of a hyperthermia side effect and their tendency to block thermal noxious pain, this ion channel is undeniably well placed in the pain pathway, and the idea of blocking pain signals before they enter the CNS is an excellent concept and of proven efficacy when TRPV1 agonists are used. We propose a new approach involving allosteric modulation to impose an activity-dependent constraint within the context of inflammation and tissue damage that would alter the responsiveness of the channel in a way that an orthosteric vanilloid antagonist cannot achieve. We believe that the allosteric modulator approach has not been explored for this target. The main goal of this proposal is to identify additional, new, potent allosteric modulators of TRPV1 that can be used to investigate TRPV1 function. Our recent report provides evidence of proof of concept, but the compounds are just at the edge of utility in terms of potency. […] The question of whether they can be used as analgesic agents is complex, but if suitable compounds are identified then testing for analgesic properties will be conducted. NIH Chemical Genomics Center [NCGC] NIH Molecular Libraries Probe Centers Network [MLPCN] MLPCN Grant: MH089480-1A1 Assay Submitter (PI): Michael Iadarola, National Institute of Dental and Cranofacial Research
Upon TRPV1 activation in TRPV1 cells, the channel opens and extracellular cations flow through the channel into the cytosol. A calcium binding dye (Fluo-8) becomes fluorescent when bound to calcium. This dye is pre-loaded into cells and is used as a marker for calcium influx. The amount of accumulated calcium is precisely quantified using the FDSS kinetic reader and the calcium dye. For the HTS assay, freshly prepared cells are plated at a density of 2000/well in 3 ul medium in 1536-well plates and cultured overnight at 35.5C. Cells will be loaded with 1 ul of the homogeneous calcium dye (ABD Bioquest) at room temperature for 40 to 90 minutes. Plates will be loaded into the FDSS kinetic reader and a 1 sec / cycle for 10 second baseline signal will be measured. Compound library will then be added with a pintool at 23 nl and measured kinetically for 3 minutes. This portion of the read is considered the agonist portion of the screen. Following the 3 minutes of incubation, an on board pipettor will deliver 1 ul of capsaicin for a final concentration equal to the EC20. Signal will be measured kinetically for an additional 2 minutes. This portion of the read is considered the allosteric enhancer portion of the screen. The FDSS reader has a standard filter set capable of measuring calcium bound Fluo-8 (ex=480 and em=520 nm).
Take `O=C(NCC1(N2CCCCC2)CCCCC1)c1cc([N+](=O)[O-])ccc1Cl`: the potentiation was inactive: -7.42%.
Consider `CN1[C@@H]2CC[C@H]1CC(OC(=O)C(O)(c1ccccc1)c1ccccc1)C2` (some centres undefined), for which the potentiation is inactive: -13%.
The same measure for `CCN(CC)CC(C)C(C)OC(=O)C(O)(c1ccccc1)c1ccccc1` (centres undefined): inactive: -14.1%; for `COc1cc(SC)ccc1C(=O)NCC1(N(C)C)CCCCC1`: inactive: -8.38%.
`CC(C)N1C(=O)CC2(CCN(CCOC(=O)C(O)(c3ccccc3)c3ccccc3)CC2)C1=O`: the potentiation is inactive: 23.5%.
For `Cc1ccc(C(=O)NCC2(N3CCCCC3)CCCCC2)cc1`, the potentiation was inactive: -1.15%.
On to `Cc1ccccc1C(=O)NCC1(N2CCCCC2)CCCCC1`, for which the potentiation is inactive: 2.78%.
For `CN(C)c1ccc(C(=O)NCC2(N(C)C)CCCCC2)cc1` the value was inactive: 4.61%; for `CN(C)C1CCCC1OC(=O)C(O)(c1ccccc1)c1ccccc1` (centres undefined), inactive: 3.59%.
The same measure for `C=CCN1CCN(CCOC(=O)C(O)(c2ccccc2)c2ccccc2)CC1`: inactive: 2.06%; for `O=C(NCC1(N2CCCCC2)CCCCC1)c1cc(F)c(F)cc1Cl`: inactive: 4.1%; for `COc1ccc(C(=O)NCC2(N(C)C)CCCCC2)cc1`: inactive: 8.54%.
For the compound `CCN1CCCC(OC(=O)C2(O)c3ccccc3C=Cc3ccccc32)C1` (centres undefined), the potentiation is inactive: -6.39%.
The same measure for `Cc1cc(C(=O)NCC2(N3CCCCC3)CCCCC2)ccc1[N+](=O)[O-]`: inactive: -6.88%; for `O=C(NCC1(N2CCCCC2)CCCCC1)c1cccc(Br)c1`: inactive: 5.15%.
For the compound `CN(C)C1(CNC(=O)c2ccc(Br)cc2)CCCCC1`, the potentiation was inactive: -8.41%.
Take `COc1cc(C(=O)NCC2(N(C)C)CCCCC2)c([N+](=O)[O-])cc1OC`: the potentiation is inactive: 8.04%.
The same measure for `COc1cccc(C(=O)NCC2(N3CCCCC3)CCCCC2)c1`: inactive: 1.75%.
Regarding `COc1ccc(Cl)cc1C(=O)NCC1(N(C)C)CCCCC1`, the potentiation was inactive: 28%.
With `O=C(NCC1(N2CCCCC2)CCCCC1)c1cccc(Cl)c1`, the potentiation is inactive: 5.78%.
For `O=C(OC1CN2CCC1CC2)C(CO)(c1ccccc1)c1ccccc1` (centres undefined) the value was inactive: 1.04%.
The same measure for `COc1ccc(Br)c(C(=O)NCC2(N3CCCCC3)CCCCC2)c1`: inactive: -9.08%; for `CC(C)Oc1ccc(C(=O)NCC2(N(C)C)CCCCC2)cc1`: inactive: 11.4%.
The same measure for `CN(C)c1cccc(C(=O)NCC2(N(C)C)CCCCC2)c1`: inactive: -17.9%.
